Target: µ opioid receptor (Rattus norvegicus, UniProt P33535)
Test: [35S]GTPγS functional assay, rat brain membranes, µ receptor
Assay type: biochemical, Sprague-Dawley rat
Design: from tissue; host or cells: Sprague-Dawley rat brain (without cerebella) membranes
Details: read-out: EC50, stimulation of [35S]GTPγS binding
Experimental: Membrane fractions were prepared from Sprague-Dawley rat or guinea pig brains as described above. To determine binding of [^35S]GTPyS, rat or guinea pig brain membranes (10 µg of protein) were incubated for 60 min at 30 °C in Tris-EGTA buffer (50 mM Tris-HCl buffer, 3 mM MgCl2, 1 mM EGTA, […], pH 7.4) containing 30 µM GDP, 0.05 nM [^35S]GTPyS and appropriate concentrations of the respective compounds according to the present invention in a final volume of 1 ml. The reaction was terminated by vacuum filtration through Whatman GF/B glass fibre filters. Filters were washed three times with ice-cold 50 mM Tris-HCI buffer (pH 7.4) and the bound radioactivity was measured by liquid scintillation counting (Beckman Coulter™ LS6500). Basal activity was determined by subtracting the non-specific binding (measured in the presence of 100 µM unlabelled GTPyS) from the total binding (measured in the absence of the compound).
Stimulation produced by the compound is given as percentage of the basal activity (given as 100%). Functional data, EC50 (nM; half maximal effective concentration) and maximal stimulation Emax (% stimulation over basal level; maximal effective concentration), were calculated by using nonlinear regression analysis and sigmoidal curve fitting GraphPad Prism (San Diego, CA, USA) program. […]

By UniProt entry, the sequences of proteins in these tests, tags left out.
UniProt P33535, whole entry: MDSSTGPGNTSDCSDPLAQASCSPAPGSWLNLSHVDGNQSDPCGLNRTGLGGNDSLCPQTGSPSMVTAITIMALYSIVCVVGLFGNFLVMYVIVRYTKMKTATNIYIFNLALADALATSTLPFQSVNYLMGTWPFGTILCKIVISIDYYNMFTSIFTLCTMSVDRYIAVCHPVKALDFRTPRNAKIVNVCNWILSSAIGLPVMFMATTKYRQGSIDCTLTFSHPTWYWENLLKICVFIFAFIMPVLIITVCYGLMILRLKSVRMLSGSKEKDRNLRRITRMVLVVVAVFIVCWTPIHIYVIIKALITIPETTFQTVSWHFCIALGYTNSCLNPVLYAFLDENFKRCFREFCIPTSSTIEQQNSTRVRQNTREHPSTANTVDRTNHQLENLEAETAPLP

In the case of `C[C@@H](NC(=O)[C@@H](N)Cc1ccc(O)cc1)C(=O)NCC(=O)N(C)[C@@H](Cc1ccccc1)C(=O)NCCO` [DAMGO, [D-Ala^2, Me-Phe ^4, Gly-ol^5]enkephalin], the EC50 is reported as 297 ± 40 nM.
